Measured values published in article PMC3310271 (Journal of agricultural and food chemistry, 2011).

Assay: TIM-1 gastrointestinal model bioaccessibility of maqui berry anthocyanins
Format: in vitro ADME

SMILES: OC[C@H]1O[C@@H](Oc2cc3c(O)cc(O)cc3[o+]c2-c2ccc(O)c(O)c2)[C@H](O[C@@H]2OC[C@@H](O)[C@H](O)[C@H]2O)[C@@H](O)[C@@H]1O.[Cl-] [Cyanidin-3-sambubioside]
- Total Bioaccessibility as % of intake: 0.75 +/− 0.75 % of intake
